For one compound, Ki results are on record in ChEMBL document CHEMBL4376805, “Plasmodium Purine Metabolism and Its Inhibition by Nucleoside and Nucleotide Analogues” (J Med Chem, 2019).

This assay addresses T1, Hypoxanthine-guanine phosphoribosyltransferase (Homo sapiens, UniProt P00492).
T1 sequence (P00492 whole entry): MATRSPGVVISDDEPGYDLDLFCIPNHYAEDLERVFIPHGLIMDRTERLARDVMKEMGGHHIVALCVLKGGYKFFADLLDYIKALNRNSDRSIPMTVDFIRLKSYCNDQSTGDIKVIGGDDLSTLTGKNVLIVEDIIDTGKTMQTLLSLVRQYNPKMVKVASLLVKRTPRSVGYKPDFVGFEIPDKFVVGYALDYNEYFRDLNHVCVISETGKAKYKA

Broadly, the Ki is the equilibrium dissociation constant of an inhibitor or competing ligand from its target. As for `O=C(CCP(=O)(O)O)N1C[C@@H](n2cnc3c(O)ncnc32)[C@H](OC[C@@H](O)P(=O)(O)O)C1`, the Ki is 1.3 nM.
